Chains of the proteins cited; added tags and fusions are not shown. Residues count along the entry.
UniProt P43354, 364-598 limits assumed: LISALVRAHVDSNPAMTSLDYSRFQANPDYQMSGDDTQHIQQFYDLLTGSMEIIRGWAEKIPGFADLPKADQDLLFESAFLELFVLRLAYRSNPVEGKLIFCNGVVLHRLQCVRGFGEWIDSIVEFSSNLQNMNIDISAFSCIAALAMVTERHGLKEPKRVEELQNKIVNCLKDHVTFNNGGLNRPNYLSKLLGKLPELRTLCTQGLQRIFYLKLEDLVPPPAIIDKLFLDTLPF

In paper PMC12095788, “Structural and mechanistic profiling of Nurr1 modulation by vidofludimus enables structure-guided ligand design” (Communications Chemistry, 2025):

Biological target: T1, Nurr1 LBD homodimer (Homo sapiens, UniProt P43354)
T1 construct: a plasmid construct encoding Nurr1 (aa 364-598) in a pMal vector system; sGFP-Nurr1 LBD protein and sGFP-RXRα LBD[26] were titrated against a fixed concentration of Tb-SA conjugated Nurr1 LBD protein; MBP (cleaved yes); made in house; host or cells: E.coli BL21-R3-pRARE2 (biotinylated Nurr1 LBD)
Experiment: HTRF Nurr1 homodimer formation assay
Assay type: biochemical

## COc1cccc(-c2ccc(NC(=O)C3=C(C(=O)O)CCC3)c(F)c2)c1 [vidofludimus]
  effect on Nurr1 homodimerization: strongly reduced
